Biological target: CYP 2C19 (Homo sapiens (Human), UniProt P33261)
Conditions: 24 µM

Chains of the proteins cited; added tags and fusions are not shown.
UniProt P33261, whole entry: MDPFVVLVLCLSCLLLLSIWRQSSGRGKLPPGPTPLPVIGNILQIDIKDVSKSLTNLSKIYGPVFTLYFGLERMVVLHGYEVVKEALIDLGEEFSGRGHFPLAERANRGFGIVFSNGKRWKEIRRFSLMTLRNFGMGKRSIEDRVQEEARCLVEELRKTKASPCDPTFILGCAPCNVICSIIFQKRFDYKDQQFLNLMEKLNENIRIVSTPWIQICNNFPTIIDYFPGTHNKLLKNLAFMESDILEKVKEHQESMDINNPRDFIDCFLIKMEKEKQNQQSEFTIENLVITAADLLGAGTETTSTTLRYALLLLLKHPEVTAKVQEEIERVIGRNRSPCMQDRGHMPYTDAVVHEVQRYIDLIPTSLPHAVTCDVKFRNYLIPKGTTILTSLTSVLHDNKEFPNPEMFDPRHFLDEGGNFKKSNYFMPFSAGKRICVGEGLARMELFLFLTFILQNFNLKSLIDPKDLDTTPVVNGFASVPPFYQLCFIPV

SMILES: COc1ccc2[nH]c([S+]([O-])Cc3ncc(C)c(OC)c3C)nc2c1 (stereo not shown) [omeprazole, reference compound]
- CYP inhibition, %: 84.06%

— patent publication US11401255B2, “Small molecule activators of Parkin enzyme function” (Mayo Foundation for Medical Education and Research, priority 2016, dated 2022)
